PubChem BioAssay AID485 (The Scripps Research Institute Molecular Screening Center, 2006)
This is a selection; strong and weak results do not stand in their true shares. The source made the active and inactive calls.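 Rule for the calls: active = inhibition above the plate cutoff, the mean inhibition of test wells on that plate plus 3 SD (cut at about 28% in these data); inactive = the rest.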

Sequences of proteins named here, by UniProt entry; tags and fusion partners are left off.
UniProt Q99500, whole entry: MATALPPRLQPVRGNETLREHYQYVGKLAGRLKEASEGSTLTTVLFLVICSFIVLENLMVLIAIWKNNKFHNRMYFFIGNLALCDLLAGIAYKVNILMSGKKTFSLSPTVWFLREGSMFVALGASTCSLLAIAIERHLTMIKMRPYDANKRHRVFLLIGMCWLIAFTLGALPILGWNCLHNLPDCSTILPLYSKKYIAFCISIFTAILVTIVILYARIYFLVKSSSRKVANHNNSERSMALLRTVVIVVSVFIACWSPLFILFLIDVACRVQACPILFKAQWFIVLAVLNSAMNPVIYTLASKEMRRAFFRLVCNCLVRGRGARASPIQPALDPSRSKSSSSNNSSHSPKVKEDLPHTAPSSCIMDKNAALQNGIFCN

Molecular target: Sphingosine 1-phosphate receptor 3 (Homo sapiens) (UniProt Q99500)
Test: S1P3 receptor antagonists, primary screen, cell-based (AID 485);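 note: cells challenged with S1P at its EC80 of 0.8 µM; blue over green emission ratio from cleaved BLA substrate after 4 h stimulation; 0% = S1P-stimulated wells and 100% = unstimulated DMSO-only wells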
Details: CHO S1P3 NFAT-BLA reporter, FRET fluorescence, antagonist mode; at 4.98 µM; stronger effect = higher value

Row | Structure (SMILES) | inhibition
1 | O=[As](O)(c1ccccc1Br)c1ccccc1Br | inactive: -16.1%
